The record followed here is EP4837910A1, “ISOXAZOLINE COMPOUND AND PREPARATION METHOD THEREFOR, HERBICIDAL COMPOSITION, AND USE” (dated 2026).

The test system of series [1] is Monocotyledonous and dicotyledonous weed. The experiment in a line: Pre-emergence test on weeds (greenhouse, sprayed immediately after sowing). Particulars: fresh weight control rate; for activity level of plant damage (growth control rate), Digitaria sanguinalis / activity level of plant damage (growth control rate), Lolium multiflorum / activity level of plant damage (growth control rate), Setaria viridis / activity level of plant damage (growth control rate), Descurainia sophia: after 4 weeks in greenhouse; for activity level of plant damage (growth control rate), Zea mays: crop Zea mays. An excerpt:
(§1) The criteria for activity levels of plant damage (i.e., growth control rate) are as follows: • Level 9: completely dead; • Level 8: growth control rate greater than or equal to 90% and less than 100%; • Level 7: growth control rate greater than or equal to 80% and less than 90%; • Level 6: growth control rate greater than or equal to 70% and less than 80%; • Level 5: growth control rate greater than or equal to 50% and less than 70%; • Level 4: growth control rate greater than or equal to 30% and less than 50%; • Level 3: growth control rate greater than or equal to 20% and less than 30%; • Level 2: growth control rate greater than or equal to 10% and less than 20%; • Level 1: growth control rate less than 10%; • Level 0: no effect.
(§2) The above growth control rates are fresh weight control rates.
Monocotyledonous and dicotyledonous weed seeds as well as major crop seeds were placed in plastic pots filled with soil and then covered with 0.5-2 cm of soil. The test compounds of the present invention were individually dissolved with acetone, then added with Tween® 80, diluted with certain amount of water to obtain solutions of certain concentrations, and sprayed immediately after sowing. After drug application, the experimental results on weeds were observed after 4 weeks of cultivation in a greenhouse. Table 3 Results of pre-emergence test on weeds

Series [2] shares this test system. The experiment in a line: Post-emergence test on weeds (greenhouse, spray tower). To be noted: after 3 weeks of cultivation in a greenhouse, fresh weight control rate.
Excerpt: as §1, §2
Monocotyledonous and dicotyledonous weed seeds as well as major crop seeds were placed in plastic pots filled with soil and then covered with 0.5-2 cm of soil to allow them grow in a favorable greenhouse environment. Two weeks after sowing, the test plants were treated. The test compounds of the present invention were individually dissolved with acetone, then added with Tween® 80 and the emulsifiable concentrate of methyl oleate as a synergist, diluted with certain amount of water to obtain solutions of certain concentrations, and sprayed to the plants using a spray tower. After drug application, the experimental results on weeds were collected after 3 weeks of cultivation in a greenhouse. Table 2 Results of post-emergence test on weeds

Where [3] appears, read: Digitaria sanguinalis, Dosage 240 g a.i./ha.
The mark [4] stands for this setting: Setaria viridis, Dosage 240 g a.i./ha.
[5] abbreviates: sprayed immediately after sowing, 240 g a.i./ha, observed after 4 weeks in greenhouse.

As to `C=C(C)[C@]1(C(=O)N[C@@H](C)C(=O)N(C)OC)CC(c2cc(F)cc(Br)c2)=NO1`, the “activity level of plant damage (growth control rate), Digitaria sanguinalis” value in series [1] (setting [3]) is 9. The “activity level of plant damage (growth control rate), Lolium multiflorum” value in series [1] (Dosage 240 g a.i./ha) is 8 (Level 8: growth control rate greater than or equal to 90% and less than 100%). The “activity level of plant damage (growth control rate), Setaria viridis” value (“activity level of plant damage … Setaria viridis” below) in series [1] (setting [4]) is 9.

Regarding `C=C(C)[C@]1(C(=O)N[C@@H](C)C(=O)NOCCC)CC(c2cc(F)cc(F)c2)=NO1`, in series [2] (Dosage 60 g a.i./ha), the “Digitaria sanguinalis, activity level of plant damage (growth control rate)” value (“Digitaria sanguinalis, activity level” below) is 8 (Level 8: growth control rate greater than or equal to 90% and less than 100%); the “Echinochloa crus-galli, activity level of plant damage (growth control rate)” value (“Echinochloa crus-galli, activity level” below) was 9. In series [1] (Dosage 240 g a.i./ha), the “activity level of plant damage (growth control rate), Descurainia sophia” value amounted to 9 and the “activity level of plant damage (growth control rate), Lolium multiflorum” value worked out at 9. The “activity level of plant damage (growth control rate), Digitaria sanguinalis” value in series [1] (setting [3]) came to 9. In addition, in series [1] (setting [4]), the “activity level of plant damage … Setaria viridis” value came out at 9.

For `CC[C@]1(C(=O)N[C@@H](C)C(=O)N(C)OC)CC(c2cc(F)cc(F)c2)=NO1`, the “Avena fatua, activity level of plant damage (growth control rate)” value (“Avena fatua, activity level” for short) in series [2] (Dosage 240 g a.i./ha) was 9. The “activity level of plant damage (growth control rate), Digitaria sanguinalis” value in series [1] (setting [3]) came to 9. In series [1] (Dosage 240 g a.i./ha), the “activity level of plant damage (growth control rate), Lolium multiflorum” value came to 9. Further, the “activity level of plant damage … Setaria viridis” value in series [1] (setting [4]) stood at 9.

With `C=C(C)[C@]1(C(=O)N[C@@H](C)C(=O)NOCCCC)CC(c2cc(F)cc(F)c2)=NO1`, in series [2] (Dosage 60 g a.i./ha), the “Digitaria sanguinalis, activity level” value was 9; the “Echinochloa crus-galli, activity level” value was 8 (Level 8: growth control rate greater than or equal to 90% and less than 100%). In addition, in series [1] (Dosage 240 g a.i./ha), the “activity level of plant damage (growth control rate), Descurainia sophia” value is 6 (Level 6: growth control rate greater than or equal to 70% and less than 80%); the “activity level of plant damage (growth control rate), Lolium multiflorum” value turned out to be 9. Besides, the “activity level of plant damage (growth control rate), Digitaria sanguinalis” value in series [1] (setting [3]) is on record as 9. Moreover, the “activity level of plant damage … Setaria viridis” value in series [1] (setting [4]) is 9.

For the compound `C=C[C@]1(C(=O)N[C@@H](C)C(=O)N(C)OCC(=O)ON=C(C)C)CC(c2cc(F)cc(F)c2)=NO1`, in series [2] (Dosage 240 g a.i./ha), the “Digitaria sanguinalis, activity level” value is 5 (Level 5: growth control rate greater than or equal to 50% and less than 70%); the “Echinochloa crus-galli, activity level” value is 6 (Level 6: growth control rate greater than or equal to 70% and less than 80%). Moreover, in series [1] (setting [5]), the “activity level (growth control rate), Descurainia sophia” value is 9; the “activity level (growth control rate), Lolium multiflorum” value is 9; the “activity level of plant damage (growth control rate), Zea mays” value (from here on “activity level of plant damage … Zea mays”) is given as 1 (Level 1: growth control rate less than 10%).

On to `C=C(C)[C@]1(C(=O)N[C@@H](C)C(=O)NOCCCOC)CC(c2cc(F)cc(Cl)c2)=NO1`, for which, in series [2] (Dosage 60 g a.i./ha), the “Digitaria sanguinalis, activity level” value was 8 (Level 8: growth control rate greater than or equal to 90% and less than 100%); the “Echinochloa crus-galli, activity level” value was 8 (Level 8: growth control rate greater than or equal to 90% and less than 100%). In series [1] (Digitaria sanguinalis, sprayed immediately after sowing, 240 g a.i./ha, observed after 4 weeks in greenhouse), the “activity level (growth control rate), Digitaria sanguinalis” value is given as 9. In addition, the “activity level (growth control rate), Setaria viridis” value in series [1] (Setaria viridis, sprayed immediately after sowing, 240 g a.i./ha, observed after 4 weeks in greenhouse) is 9.

As to `C=C[C@]1(C(=O)N[C@@H](C)C(=O)NOCC(F)(F)F)CC(c2cc(F)cc(F)c2)=NO1`, in series [1] (Dosage 240 g a.i./ha), the “activity level of plant damage (growth control rate), Lolium multiflorum” value is 7 (Level 7: growth control rate greater than or equal to 80% and less than 90%).

Take `C=C[C@]1(C(=O)NCC(=O)N(C)OC)CC(c2cc(F)cc(F)c2)=NO1`: in series [1] (Dosage 240 g a.i./ha), the “activity level of plant damage (growth control rate), Descurainia sophia” value came to 9 and the “activity level of plant damage (growth control rate), Lolium multiflorum” value is 9. Further, the “activity level of plant damage (growth control rate), Digitaria sanguinalis” value in series [1] (setting [3]) was 6 (Level 6: growth control rate greater than or equal to 70% and less than 80%). Also, the “activity level of plant damage … Setaria viridis” value in series [1] (setting [4]) was 6 (Level 6: growth control rate greater than or equal to 70% and less than 80%).

As to `C=C[C@]1(C(=O)N[C@@H](C)C(=O)N(C)OCC)CC(c2cc(F)cc(F)c2)=NO1`, in series [1] (Dosage 240 g a.i./ha), the “activity level of plant damage (growth control rate), Descurainia sophia” value is 8 (Level 8: growth control rate greater than or equal to 90% and less than 100%); the “activity level of plant damage (growth control rate), Lolium multiflorum” value is 9. The “activity level of plant damage (growth control rate), Digitaria sanguinalis” value in series [1] (setting [3]) amounted to 9. Besides, the “activity level of plant damage … Setaria viridis” value in series [1] (setting [4]) is 9.

`C=C[C@]1(C(=O)N[C@@H](C)C(=O)N(C)OC)CC(c2cc(F)cc(C#N)c2)=NO1`: in series [1] (setting [3]), the “activity level of plant damage (growth control rate), Digitaria sanguinalis” value was 5 (Level 5: growth control rate greater than or equal to 50% and less than 70%). Moreover, the “activity level of plant damage (growth control rate), Lolium multiflorum” value in series [1] (Dosage 240 g a.i./ha) turned out to be 9. Moreover, the “activity level of plant damage … Setaria viridis” value in series [1] (setting [4]) is reported as 9.

Regarding `C=C(C)[C@]1(C(=O)N[C@@H](C)C(=O)NOCC(C)C)CC(c2cc(F)cc(F)c2)=NO1`, in series [2] (Dosage 60 g a.i./ha), the “Amaranthus retroflexus, activity level of plant damage (growth control rate)” value was 5 (Level 5: growth control rate greater than or equal to 50% and less than 70%); the “Digitaria sanguinalis, activity level” value came out at 9; the “Echinochloa crus-galli, activity level” value was 8 (Level 8: growth control rate greater than or equal to 90% and less than 100%).

With `C=C[C@]1(C(=O)N[C@@H](C)C(=O)N(C)OC)CC(c2cc(C(F)(F)F)cc(C(F)(F)F)c2)=NO1`, in series [2] (Dosage 240 g a.i./ha), the “Avena fatua, activity level” value was found to be 9.

Turning to `C=CC1(C(=O)N[C@H](C)C(=O)N(C)OC)CC(c2cccc(C)n2)=NO1` (stereo partly shown), the “activity level of plant damage (growth control rate), Digitaria sanguinalis” value in series [1] (setting [3]) was 8 (Level 8: growth control rate greater than or equal to 90% and less than 100%). In addition, in series [1] (Dosage 240 g a.i./ha), the “activity level of plant damage (growth control rate), Lolium multiflorum” value worked out at 9. Further, in series [1] (setting [4]), the “activity level of plant damage … Setaria viridis” value is 8 (Level 8: growth control rate greater than or equal to 90% and less than 100%).

With `C=C[C@@]1(C(=O)N[C@@H](C)C(=O)NOC)CC(c2cc(F)cc(F)c2)=NO1`, the “Avena fatua, activity level” value in series [2] (Dosage 240 g a.i./ha) was 9.

For `C=C[C@@]1(C(=O)N[C@@H](C)C(=O)N(C)OC)CC(c2cc(C(F)(F)F)cc(C(F)(F)F)c2)=NO1`, the “activity level of plant damage … Setaria viridis” value in series [1] (setting [4]) was 5 (Level 5: growth control rate greater than or equal to 50% and less than 70%).

For `C=C(C)[C@]1(C(=O)N[C@H](C)C(=O)NOCC)CC(c2cc(F)cc(F)c2)=NO1`, the “Avena fatua, activity level” value in series [2] (Dosage 240 g a.i./ha) was 6 (Level 6: growth control rate greater than or equal to 70% and less than 80%).

Regarding `C=C(C)[C@]1(C(=O)N[C@@H](C)C(=O)NOC)CC(c2cc(F)cc(F)c2)=NO1`, in series [2] (Dosage 240 g a.i./ha), the “Avena fatua, activity level” value is 9; the “Digitaria sanguinalis, activity level” value worked out at 9; the “Echinochloa crus-galli, activity level” value is 8 (Level 8: growth control rate greater than or equal to 90% and less than 100%).

On to `C=CC1(C(=O)NCC(=O)N(C)OC)CC(c2cc(F)cc(F)c2)=NO1` (stereo not shown), for which the “activity level of plant damage (growth control rate), Digitaria sanguinalis” value in series [1] (Digitaria sanguinalis, Dosage 250 g a.i./ha) is listed as 9. Besides, in series [1] (Dosage 250 g a.i./ha), the “activity level of plant damage (growth control rate), Lolium multiflorum” value came to 9. Besides, in series [1] (Setaria viridis, Dosage 250 g a.i./ha), the “activity level of plant damage … Setaria viridis” value is 9.

With `CON(C)C(=O)[C@H](C)NC(=O)C1(C(F)(F)F)CC(c2cc(F)cc(F)c2)=NO1` (stereo partly shown), the “activity level of plant damage (growth control rate), Digitaria sanguinalis” value in series [1] (setting [3]) is listed as 9. In addition, in series [1] (Dosage 240 g a.i./ha), the “activity level of plant damage (growth control rate), Lolium multiflorum” value is recorded as 9. Also, in series [1] (setting [4]), the “activity level of plant damage … Setaria viridis” value came out at 9.

For the compound `CC[C@]1(C(=O)N[C@@H](C)C(=O)NOC)CC(c2cc(Br)cc(Br)c2)=NO1`, in series [1] (setting [5]), the “activity level (growth control rate), Lolium multiflorum” value amounted to 9 and the “activity level of plant damage … Zea mays” value is given as 0.

With `CCON(C)C(=O)[C@H](C)NC(=O)[C@@]1(CC)CC(c2cc(F)cc(F)c2)=NO1`, in series [1] (setting [3]), the “activity level of plant damage (growth control rate), Digitaria sanguinalis” value is listed as 9. For the same compound, the “activity level of plant damage (growth control rate), Lolium multiflorum” value in series [1] (Dosage 240 g a.i./ha) is recorded as 9. In addition, in series [1] (setting [4]), the “activity level of plant damage … Setaria viridis” value stood at 9.

In the case of `C=C[C@]1(C(=O)N[C@@H](C)C(=O)NOC)CC(c2cc(F)cc(Br)c2)=NO1`, in series [1] (setting [5]), the “activity level (growth control rate), Descurainia sophia” value is 7 (Level 7: growth control rate greater than or equal to 80% and less than 90%); the “activity level (growth control rate), Lolium multiflorum” value is listed as 9; the “activity level of plant damage … Zea mays” value worked out at 0.
